One substance from patent publication US10828436B2, “Administering the noble gas argon during cardiopulmonary resuscitation” (Vanderbilt University, priority 2016, dated 2020) can be followed below.

This is a selection: effects in other tests are not listed, and their absence says nothing.

The test system of this experiment is porcine model of prolonged untreated cardiac arrest. The experiment is described as follows: Porcine model of 15 min untreated VF, sodium nitroprusside enhanced CPR ([…]). As to conditions: after 15 min of untreated cardiac arrest.

Take Sodium Nitroprusside: the 24-hr survival entry is “more than 90%”.
